Reference: ChEMBL document CHEMBL3886551, “Oligomer-opioid agonist conjugates” (2016)

Protein sequences, listed by entry. Tags and fused reporters are not part of them. Lines headed by an entry give the natural chain unless they say otherwise; changes in a name come on top.
UniProt P41145: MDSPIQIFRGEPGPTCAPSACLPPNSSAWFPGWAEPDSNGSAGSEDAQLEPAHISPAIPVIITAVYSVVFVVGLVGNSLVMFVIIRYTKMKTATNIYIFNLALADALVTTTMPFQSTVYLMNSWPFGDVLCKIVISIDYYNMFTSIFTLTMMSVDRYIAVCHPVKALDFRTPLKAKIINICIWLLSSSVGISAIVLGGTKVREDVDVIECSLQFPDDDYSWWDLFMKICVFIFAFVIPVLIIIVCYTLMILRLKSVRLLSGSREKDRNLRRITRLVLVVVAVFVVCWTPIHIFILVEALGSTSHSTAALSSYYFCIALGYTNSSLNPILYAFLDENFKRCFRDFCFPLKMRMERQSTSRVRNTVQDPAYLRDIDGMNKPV
UniProt P41143, whole entry: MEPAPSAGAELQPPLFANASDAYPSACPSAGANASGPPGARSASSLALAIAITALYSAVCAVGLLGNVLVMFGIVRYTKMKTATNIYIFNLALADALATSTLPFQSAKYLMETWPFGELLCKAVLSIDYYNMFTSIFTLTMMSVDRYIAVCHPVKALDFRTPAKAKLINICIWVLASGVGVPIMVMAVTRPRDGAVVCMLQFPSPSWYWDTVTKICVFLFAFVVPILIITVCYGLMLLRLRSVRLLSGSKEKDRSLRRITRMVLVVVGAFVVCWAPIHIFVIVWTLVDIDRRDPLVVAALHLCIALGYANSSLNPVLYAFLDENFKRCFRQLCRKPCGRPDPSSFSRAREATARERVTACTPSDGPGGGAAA
UniProt P35372, whole entry: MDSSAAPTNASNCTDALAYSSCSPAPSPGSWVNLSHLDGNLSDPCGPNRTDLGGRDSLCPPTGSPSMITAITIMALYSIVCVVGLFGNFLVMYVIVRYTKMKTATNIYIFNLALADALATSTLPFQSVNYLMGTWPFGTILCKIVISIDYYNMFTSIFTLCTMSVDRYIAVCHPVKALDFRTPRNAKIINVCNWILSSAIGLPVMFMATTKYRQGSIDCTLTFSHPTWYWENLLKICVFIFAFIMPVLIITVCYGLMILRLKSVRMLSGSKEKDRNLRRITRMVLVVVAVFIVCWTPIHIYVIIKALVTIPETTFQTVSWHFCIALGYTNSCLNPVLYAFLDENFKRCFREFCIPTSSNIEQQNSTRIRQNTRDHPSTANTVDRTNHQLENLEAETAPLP

Legend:
[1] = target: Kappa-type opioid receptor (Homo sapiens, UniProt P41145)
[2] = target: T1, Delta-type opioid receptor (Homo sapiens, UniProt P41143); assay: GTPyS binding assay: Test compound and/or vehicle was preincubated with the cell membranes and 3 uM GDP in modified HEPES buffer (pH 7.4) for 20 minutes, followed by addition of SPA beads for another 60 minutes at 30° C. The reaction is initiated by 0.3 nM [35S]GTP gamma S for an additional 30 minutes incubation period.
[3] = target: Mu-type opioid receptor (Homo sapiens, UniProt P35372)
[4] = target: T1, Delta-type opioid receptor; assay: Binding of PEG-Nalbuphine assays: Specific binding is determined by subtraction of the cpm bound in the presence of 50-100× excess of cold ligand. Binding data assays were analyzed using GraphPad Prism 4.0 and IC50 is generated by non-linear regression from dose-response curves. Ki values were calculated using the Cheng Prusoff equation using the Kd values from saturation isotherms as follows: Ki=IC50/(1+[Ligand]/Kd).

COCCOCCOCCOCCOCCOCCOCCOCCOCCO[C@H]1CC[C@@]2(O)[C@H]3Cc4ccc(O)c5c4[C@@]2(CCN3CC2CCC2)C1O5 (some centres undefined)
EC50 [1]: 485 nM | IC50 [2]: 8970 nM | IC50 [3]: 1010 nM | Ki [4]: 158 nM
